Columns and labels:
[1] = target: T1, human TREM-1 (TrigGering Receptor Expressed on Myeloid cells 1) on cells (human, UniProt Q9NP99 21-234); experiment: cell-based or functional assay
cyno TREM-1 on cells [2] = target: T2, cyno TREM-1 on cells (cynomolgus monkey, UniProt A0A2K5VHG8 21-233); experiment: cell-based or functional assay
T2 sequence: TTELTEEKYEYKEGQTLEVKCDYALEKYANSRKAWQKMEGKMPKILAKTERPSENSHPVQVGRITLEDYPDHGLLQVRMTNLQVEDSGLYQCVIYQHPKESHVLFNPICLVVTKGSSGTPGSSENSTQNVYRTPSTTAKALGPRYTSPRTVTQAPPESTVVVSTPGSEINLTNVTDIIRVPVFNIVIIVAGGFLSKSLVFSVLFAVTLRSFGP

By UniProt entry, the sequences of proteins in these tests, tags left out. Residues count along the entry.
UniProt Q9NP99, 21-234 limits assumed: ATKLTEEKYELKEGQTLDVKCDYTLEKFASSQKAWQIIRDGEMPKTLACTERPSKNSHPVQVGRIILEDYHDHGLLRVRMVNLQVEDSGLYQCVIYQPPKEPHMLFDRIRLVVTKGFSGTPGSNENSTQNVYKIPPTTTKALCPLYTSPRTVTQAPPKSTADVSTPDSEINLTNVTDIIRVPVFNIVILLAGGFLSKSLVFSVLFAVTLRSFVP
UniProt Q9NP99, 21-205 limits assumed: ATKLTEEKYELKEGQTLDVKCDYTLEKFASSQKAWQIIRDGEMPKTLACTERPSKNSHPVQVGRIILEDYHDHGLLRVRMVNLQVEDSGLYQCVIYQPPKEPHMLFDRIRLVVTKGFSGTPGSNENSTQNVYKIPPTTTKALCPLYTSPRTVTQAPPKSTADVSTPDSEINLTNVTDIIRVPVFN

[3] = target: T3, biotinylated human TREM-1-His antigen (human, UniProt Q9NP99 21-205, biotinylated in-house, site not stated); experiment: limiting antigen assay, FACS on LumAvidin beads coated with 7.5 ng/mL biotinylated human TREM-1-His; antibody 5 ug/mL
T3 construct: Soluble TREM-1; also called b-huTREM-1-His; Soluble TREM1
Excerpt: TREM-1 Antibody Relative Affinity Ranking by Limiting Antigen Assay: TREM1 hybridoma supernatants were affinity-ranked within the panel by their binding kinetics to soluble TREM-1 in a limiting antigen assay using LUMAVIDIN® beads (Luminex) on FACS. Briefly, in-house biotinylated human TREM-1-His antigen (b-huTREM-1-His) was serially diluted in FACS buffer and combined with an equal volume of LUMAVIDIN® beads (different uniquely-barcoded bead for each antigen concentration), resulting in a 5-point 2-fold serial dilution series starting from a final b-huTREM-1-His antigen concentration of 30 ng/mL. The antigen-bead mixtures were plated across 3 wells in a 96-well FACS plate, then incubated for 30 minutes at room temperature protected from light. Beads were then pelleted by centrifugation, supernatant was removed by flicking, and wells were washed twice with 200 μL/well of FACS buffer. The different beads were then resuspended, pooled, and diluted in STABILGUARD® Immunoassay Stabilizer (SurModics) to block non-specific binding. Normalized TREM-1 hybridoma supernatants were combined with an equal volume of bead mixture in a FACS plate at a final concentration of 5 μg/mL test antibody to 0.5 μL beads/well. The plates were then shaken and incubated overnight for ˜18 hours at room temperature. Beads were then pelleted by centrifugation, supernatant was removed by flicking, and wells were washed twice with 200 μL/well of FACS buffer. ALEXA FLUOR® 488 Goat anti-Human IgG Fc secondary detection antibody (Jackson ImmunoResearch) was added at 5 μg/mL to the plates, shaken, and incubated for 15 minutes at room temperature protected from light. Beads were washed with FACS buffer, pelleted by centrifugation, supernatant was removed by flicking, and washed once more with FACS buffer. The beads were then resuspended and run on the BD ACCURI™ C6 Flow Cytometer with Intellicyt […]® autosampler.
The antibody binding signal correlates with antibody affinity; the degree of antibody binding to the target antigen TREM-1 correlates with the measured fluorescent intensity and thus allows a relative comparison of affinities across the panel.

cyno TREM-1 on cells [4] = target: T2, cyno TREM-1 on cells; experiment: FACS on HEK293 co-transfected with cyno TREM-1 and DAP12; hybridoma supernatant 2.5 ug/mL; geomean fold over irrelevant control antibody
Protocol: (§1) The TREM-1-specific antibodies identified in primary screening were evaluated for cross-reactivity to cynomolgus TREM-1, as well as specificity to TREM-1 and not DAP12. TREM-1 hybridoma supernatants were tested for binding to human or cyno TREM-1 transiently expressed on HEK293 cells by FACS (harvests 1-6) or by […]™ (harvests 8-9). […] The following day, transfected HEK293 cells were transferred into 96-well FACS plates at 50,000 cells/well and incubated with normalized hybridoma supernatants at a final concentration of 2.5 μg/mL for 1 hour at 4° C. Cells were then pelleted by centrifugation, supernatant was removed by flicking, and wells were washed twice with 200 μL/well of FACS buffer. 5 μg/mL ALEXA FLUOR® 647 Goat anti-Human IgG Fc (Jackson ImmunoResearch) secondary detection antibody and 2.5 μg/mL 7-aminoactinomycin-D (Sigma) viability stain were incubated with the cells for 15 minutes at 4° C. Cells were pelleted by centrifugation, supernatant was removed by flicking, and wells were washed once more with 200 μL/well of FACS buffer. TREM-1 hybridoma supernatants showing human TREM-1- or cyno TREM-1-specific binding was detected by FACS on the BD ACCURI™ 06 flow cytometer with Intellicyt autosampler. The data was reported as geomean (GM) fold over irrelevant control antibody binding.

[5] = target: T1, human TREM-1 (TrigGering Receptor …); experiment: FACS on HEK293 co-transfected with human TREM-1 and DAP12; hybridoma supernatant 2.5 ug/mL; geomean fold over irrelevant control antibody
Protocol: as §1

cyno TREM-1-His protein = target: T4, cyno TREM-1-His protein (cynomolgus monkey, UniProt A0A2K5VHG8 21-204); experiment: Octet HTX BLI; antibody captured via anti-human Fc, cyno TREM-1-His analyte, 1:1 model
T4 construct: also called cyno TREM1 (soluble)
T4 sequence: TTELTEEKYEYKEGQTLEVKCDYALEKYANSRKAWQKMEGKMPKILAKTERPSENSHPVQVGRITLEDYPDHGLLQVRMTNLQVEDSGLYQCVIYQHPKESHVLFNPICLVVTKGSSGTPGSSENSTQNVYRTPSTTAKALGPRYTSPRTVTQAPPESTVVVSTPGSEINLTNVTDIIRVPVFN
Protocol: (§2) TREM1 Antibody Human/Cynomolgus Affinity Gap Determination: TREM-1 antibodies with unique CDR3 sequences that had also shown better binding in limiting antigen screens than the benchmark antibody were analyzed for their affinity to human and cyno TREM-1. […] Briefly, TREM-1 hybridoma supernatants normalized to 10 μg/mL in DMEM null media were prepared by diluting 1:10 in OCTET® assay buffer (10 mM Tris, 0.1% Triton X-100, 150 mM NaCl, 1 mM CaCl₂, 0.1 mg/mL BSA, at pH 7.6) to a final test concentration of 1 μg/mL. Amine reactive second-generation AR2G Biosensors (Molecular Devices) were pre-incubated in 200 μL nanopore water for a minimum of 10 minutes at room temperature before use. The AR2G Biosensors were then activated for 5 minutes in a solution of 20 mM EDC (1-Ethyl-3-[3-dimethylaminopropyl] carbodiimide hydrochloride) (ForteBio) pre-mixed with 10 mM NHS (N-hydroxysulfosuccinimide) (ForteBio) in nanopore water. An in-house generated mouse anti-human Fc monoclonal antibody was coupled to the AR2G Biosensors at 10 μg/mL in 10 mM sodium acetate buffer at pH 5 for 5 minutes, quenched with 1M ethanolamine at pH 8.5 for 5 minutes, and then used to capture antibody from solution. […] The association of recombinant human TREM-1 with the antibody-loaded sensor was measured for 5 minutes, followed by dissociation in OCTET® buffer for 10 minutes. […]

[6] = target: T5, recombinant soluble human TREM-1-His protein (human, UniProt Q9NP99 21-205); experiment: Octet HTX BLI; antibody captured via anti-human Fc, human TREM-1-His analyte, 1:1 model
T5 construct: Soluble TREM-1; also called recombinant human TREM-1
Protocol: as §2

Row | Binder | Ab IC50-Human PBMC (Trial 1), TNFα release after PGLYRP1/PGN [1] [nM] | Ab IC50-Human PBMC (Trial 2), TNFα release after PGLYRP1/PGN [1] [nM] | Ab IC50-Cyno PBMC (Trial 1), TNFα release after cyno PGLYRP1/PGN (cyno TREM-1 on cells [2]) [nM] | Ab IC50-Cyno PBMC (Trial 2), TNFα release after cyno PGLYRP1/PGN (cyno TREM-1 on cells [2]) [nM] | Soluble TREM1 7.5 ng/mL (FACS Geomean) [3] | Cyno TREM1 GM Fold (cyno TREM-1 on cells [4]) [fold] | Human TREM1 GM Fold [5] [fold] | koff (cyno TREM-1-His protein) [s⁻¹] | kon (cyno TREM-1-His protein) [M⁻¹ s⁻¹] | koff [6] [s⁻¹] | kon [6] [M⁻¹ s⁻¹]
1 | 34D1 (antibody, V domains shown, also called TREM1 antibody 34D1) VH: QVQLVQSGAEVKKPGASVKVSCKASGYTFTRYDINWVRQATGQGLEWMGWMNPNSGNSGSVQKFRGRVTMTRNTSIHIAYMELSSLRSEDTAVYYCARGGYTSSWRWYFDLWGRGTLVTVSS VL: DIQMTQSPSSLSASVGDRVNITCQASQDIRKHLNWYQQKPGKAPNLLIYDAANLETGVPSRFSGSGSGTAFTFTISSLQPEDIATYYCQHYANLPITFGQGTRLEIKR | 0.01 | 0.0069 | 0.1 | 0.0162 | 80400 | 228 | 246 | – | – | – | –
2 | 3E12 (antibody, V domains shown, also called TREM1 antibody 3E12) VH: QVQLVQSGAEVKKPGASVKVSCKASGYTFNGYYIHWVRQAPGQGLEWMGWLNPNSGGANYAQKFQGWVTMTRDTSISTAYMELSRLTSDDTAVYYCARDQRKTTVTPFEYWGQGTLVTVSS VL: SYELTQPPSVSVSPGQTASITCSGDKLGERNVCWYQLKPGQSPILVIYQDNKRPSGIPERFSGSKSGNTAILTISGTQAMDEADYYCQAWDRNVVFGGGTKLTVLG | – | – | – | – | – | – | – | 0.000882 | 489000 | 0.000263 | 462000

Reference: patent publication US20240279332A1 (Amgen, published 2024)
